Experimental data taken from US20100144729A1, “COUMARIN DERIVATIVES” (priority 2007, published 2010).

Chains of the proteins cited; added tags and fusions are not shown.
UniProt P21453, whole entry: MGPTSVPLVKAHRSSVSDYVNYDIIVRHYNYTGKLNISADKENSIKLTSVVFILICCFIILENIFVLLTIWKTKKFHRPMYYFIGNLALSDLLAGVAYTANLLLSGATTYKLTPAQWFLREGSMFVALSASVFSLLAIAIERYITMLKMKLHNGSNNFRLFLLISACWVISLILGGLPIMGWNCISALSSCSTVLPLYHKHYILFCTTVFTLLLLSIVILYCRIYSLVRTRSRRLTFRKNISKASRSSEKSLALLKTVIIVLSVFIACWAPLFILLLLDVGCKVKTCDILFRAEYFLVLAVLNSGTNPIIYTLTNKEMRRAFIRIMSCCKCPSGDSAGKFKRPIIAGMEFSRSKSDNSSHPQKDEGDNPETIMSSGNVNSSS

Target: S1P1 (EDG-1) (Homo sapiens, UniProt P21453)
Test: GPCR activation assay measuring GTP [γ-35S] binding to membranes from CHO cells expressing human EDG receptors (S1P1)
Conditions: read-out: S1P-1 EC50, CHO cell membranes expressing human EDG-1
Description: A.1 In Vitro: GPCR Activation Assay Measuring GTP [γ-^35S] Binding to Membranes Prepared From CHO Cells Expressing Human EDG Receptors
S1P1 (EDG-1) GTP [γ-^35S] binding assay: Homogenized membranes are prepared from CHO cell clones stably expressing a human EDG-1 N-terminal c-myc tag. Cells are grown in suspension in two 850 cm^2 roller bottles for three or fours days before harvesting. The cells are centrifuged down, washed once with cold PBS, and resuspended in ≦20 ml of Buffer A (20 mM HEPES, pH 7.4, 10 mM EDTA, EDTA-free complete protease inhibitor cocktail [1 tablet/25 ml]). The cell suspension is homogenized on ice, using a Polytron homogenizer at 30000 rpm at three intervals of 15 seconds each. The homogenate is first centrifuged at 2000 rpm on a tabletop low speed centrifuge for 10 minutes. The supernatant, after passing through a cell strainer, is then re-centrifuged at 50,000×g for 25 minutes at 4° C. The pellet is resuspended into buffer B (15% glycerol, 20 mM HEPES, pH 7.4, 0.1 mM EDTA, EDTA-free complete protease inhibitor cocktail [1 tablet/10 ml]). Protein concentration of the preparation is determined using the BCA Protein Assay kit (Pierce) using BSA as standard. The membranes are aliquoted and kept frozen at −80° C.
Solutions of test compounds ranging from 10 mM to 0.01 nM are prepared in DMSO. S1P is diluted in 4% BSA solution as positive controls. […]

EC50: 1.6 nM
SMILES: CCCc1c(OC)ccc2cc(C(=O)Nc3ccc(C4CCCN4)cc3)c(=O)oc12 (stereo not shown) [Example 1, 7-Methoxy-2-oxo-8-propyl-2H-chromene-3-carboxylic acid (4-pyrrolidin-2-yl-phenyl)-amide]
